Data as given in PubChem BioAssay AID2326 (National Center for Advancing Translational Sciences (NCATS), 2010).
About 1,100 (0.41%) of roughly 270,000 compounds were called active. Listed are the inconclusive results; actives and inactives stand elsewhere. Calls follow the shape of the full dose curve.

Assay: qHTS Assay for Inhibitors of Influenza NS1 Protein Function; also: actives are rising curves; nearly all actives have a fitted effect of over 50% in size
Details: cell-based NS1 function reporter
Potency is read from the fitted curve at half-maximal effect.

Row | Structure (SMILES) | Potency
1 | CCOc1ccc(C2=NCC(CBr)S2)cc1 (configuration not stated) | inconclusive: 20 µM
2 | CCCOP(=S)(Nc1nc(N)cc(=O)[nH]1)OCCC | inconclusive: 20 µM
